System: dog blood erythrocyte suspension
Experiment: Haemolytic activity, static method (erythrocyte suspension incubated with surfactant, haemoglobin analysed)
Type: cell-based
Conditions: for Hemolysis: 40 min at 37° C.
Procedure: A static method for evaluating the haemolytic activity of compounds was used. In short, dog blood is processed to an erythrocyte suspension, which is then incubated (40 min at 37° C.) with varying concentrations of a surfactant. The incubation is terminated by centrifugation after which the plasma, now containing different amounts of haemoglobin, can be removed and analysed. The results obtained for various MePEG- and PEG mono-12-acyloxy-stearate esters compared with a reference substance (Tween 80), are summarized in tables 3-4.

Substance: MePEG1200 12-palmitoyloxy-stearate
- Hemolysis (surfactant conc 1.0 mM): 0%
- Hemolysis (surfactant conc 5.0 mM): 0%
- Hemolysis (surfactant conc 10 mM): 0%

Substance: MePEG1200 12-stearoyloxy-stearate
- Hemolysis (surfactant conc 1.0 mM): 0%
- Hemolysis (surfactant conc 5.0 mM): 0%
- Hemolysis (surfactant conc 10 mM): 0%

Substance: MePEG2000 12-palmitoyloxy-stearate
- Hemolysis (surfactant conc 1.0 mM): 0%
- Hemolysis (surfactant conc 5.0 mM): 0%
- Hemolysis (surfactant conc 10 mM): 0%

Substance: MePEG2000 12-stearoyloxy-stearate
- Hemolysis (surfactant conc 1.0 mM): 0%
- Hemolysis (surfactant conc 5.0 mM): 0%
- Hemolysis (surfactant conc 10 mM): 0.2%

Substance: PEG600 mono-12-propionyloxy-stearate
- Hemolysis (surfactant conc 0.6 mM): 104%

Substance: PEG1500 mono-12-lauroyloxy-stearate
- Hemolysis (surfactant conc 1.0 mM): 0%
- Hemolysis (surfactant conc 1.5 mM): 0%
- Hemolysis (surfactant conc 3.0 mM): 11%
- Hemolysis (surfactant conc 5.0 mM): 98%
- concentration causing total haemolysis (text summary of Tables 3-4): 5000 µM

Substance: PEG1500 mono-12-myristoyloxy-stearate
- Hemolysis (surfactant conc 3.1 mM): 0%
- Hemolysis (surfactant conc 6.2 mM): 0%
- Hemolysis (surfactant conc 7.7 mM): 0%
- Hemolysis (surfactant conc 10.8 mM): 0%
- Hemolysis (surfactant conc 12.3 mM): 0%
- Hemolysis (surfactant conc 15.4 mM): 0%

Substance: PEG1500 mono-12-oleoyloxy-stearate
- Hemolysis (surfactant conc 0.8 mM): 0%
- Hemolysis (surfactant conc 1.9 mM): 0%
- Hemolysis (surfactant conc 3.7 mM): 0%
- Hemolysis (surfactant conc 6.0 mM): 0%
- Hemolysis (surfactant conc 8.2 mM): 0%
- Hemolysis (surfactant conc 11.2 mM): 0%

Substance: PEG1500 mono-12-palmitoyloxy-stearate
- Hemolysis (surfactant conc 1.0 mM): 0%
- Hemolysis (surfactant conc 3.0 mM): 0%
- Hemolysis (surfactant conc 5.0 mM): 0%
- Hemolysis (surfactant conc 7.0 mM): 0%
- Hemolysis (surfactant conc 9.9 mM): 0%

Substance: PEG1500 mono-12-stearoyloxy-stearate
- Hemolysis (surfactant conc 1.0 mM): 0%
- Hemolysis (surfactant conc 3.1 mM): 0%
- Hemolysis (surfactant conc 5.1 mM): 0%
- Hemolysis (surfactant conc 7.2 mM): 0%
- Hemolysis (surfactant conc 10.2 mM): 0%

Reference: patent publication US7491836B2, “Non-ionic surfactants for poorly soluble molecules” (AstraZeneca AB, priority 2003, dated 2009)
